Experimental findings from paper PMC6487500 (Molecular imaging and biology : MIB : the official …, 2019) are described below.

The test concerns BT474 xenografts. Kind of test: PET/CT imaging of mice bearing BT474 xenografts. To be noted: PET/CT 1 h post-injection.

As for `CC[C@H](C)[C@H](NC(=O)CNC(=O)[C@H](CC(=O)O)NC(=O)[C@H](CO)NC(=O)[C@@H](N)Cc1c[nH]cn1)C(=O)N[C@@H](Cc1ccccc1)C(=O)N[C@H](C(=O)N[C@@H](CC(=O)O)C(=O)N[C@@H](CO)C(=O)N[C@@H](Cc1ccc(O)cc1)C(=O)N[C@@H](CO)C(=O)N[C@@H](CCCNC(=N)N)C(=O)N[C@@H](Cc1ccc(O)cc1)C(=O)N[C@@H](CCCNC(=N)N)C(=O)N[C@@H](CCCCN)C(=O)N[C@@H](CCC(N)=O)C(=O)N[C@@H](CCSC)C(=O)N[C@@H](C)C(=O)N[C@H](C(=O)N[C@@H](CCCCN)C(=O)N[C@@H](CCCCN)C(=O)N[C@@H](Cc1ccc(O)cc1)C(=O)N[C@@H](CC(C)C)C(=O)N[C@@H](C)C(=O)N[C@@H](C)C(=O)N[C@H](C(=O)N[C@@H](CC(C)C)C(=O)NCCCC(=O)N[C@@H](CCCCNC(=O)CCC(C(=O)O)N1CCN(CC(=O)O)CCN(CC(=O)O)CC1)C(=O)O)C(C)C)C(C)C)[C@@H](C)O` (stereo partly shown) [[^68Ga]NODAGA-peptide, metal not drawn], the “delineation of BC tumors in PET imaging” value is on record as “delineated the BC tumors”.
